miR-21 reporter = miR-21 reporter, rising signal. 340,000 tested, under 10 active. Potency, µM (highest dose often 38.3 µM). HeLa miR-21 FLuc reporter, luciferase, 48 h. AID 2288; active = well fitted rising curve with a large enough effect; inconclusive = small, poorly fitted or top-dose-only effect; inactive = no such curve, though single readings can be large or run the other way;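 further: miR-21 action dims this reporter so a rising signal means less miR-21 action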
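Compounds were titrated across several concentrations (up to approximately 40 uM) and incubated 48 hours with HeLa miR-21-FLuc reporter cells (miR-21 target sequence downstream of FLuc, endogenous miR-21). Readout was firefly luciferase luminescence after lytic detection reagent.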
Mito fusion yeast = inhibitors of mitochondrial division or activators of mitochondrial fusion; S. cerevisiae fusion-defective mutant growth rescue, CellTiterGlo 48 h; Potency, µM (doses to about 46.1 µM), hits mostly activators; hit rate 0.23% among 320,000; note: nearly all actives have a fitted effect of over 45% in size
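Compounds are tested for their ability to restore growth of mitochondrial fusion-defective yeast strains at non-permissive 37C in YPEG medium over 48 hours. Viability is quantified by luciferase luminescence.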
Nrf2 ARE act = activators of Nrf2 (ARE) signaling | AREc32 ARE-luciferase reporter (MCF7-derived line), luminescence, 24 h | Potency, µM (top dose mostly 46.1 µM), hits mostly activators | hit rate 0.31% among 410,000 | AID 624171; note: nearly all actives have a fitted effect of over 65% in size
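Steps: seed AREc32_Fluc cells (1000/well, 5% FBS OPTI-MEM); incubate overnight at 37 deg C; add 23 nL compound; incubate 24 hr; add Steady-Glo; hold 30 min RT; read luminescence.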
Nrf2 block = blocks Nrf2 signaling; hit rate 2.1% among 360,000; Potency, µM (series often up to 46 µM), hits mostly inhibitors; A549 ARE-Fluc reporter, luciferase luminescence, 18-24 h; note: nearly all actives have a fitted effect of over 60% in size
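Reporter: ARE-Fluc in A549. Exposure: 18-24 h, 37 °C, 5% CO2, 5% FBS OPTI-MEM. Readouts: fluorescent cytotoxicity (CellTiter-Fluor), then luminescent Nrf2 signal after BugLite.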
A549 viability = kills or reduces viability of A549 cells in Nrf2 counter-screen. A549 ARE-Fluc cells, CellTiter-Fluor viability, 18-24 h. Potency, µM (doses to about 46 µM), most hits filed as inhibitors. hit rate 0.16% among 390,000. AID 504648
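A549 ARE-Fluc cells in 5% FBS OPTI-MEM, 5000 cells/well, rested 2 h then exposed to compounds in concentration-response for 18-24 h at 37 °C. Viability by CellTiter-Fluor fluorescence (Ex 405/Em 525) after 30 min; luciferase luminescence (BugLite, 15 min, RT) read afterwards.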
GRP78 ERSR act = induces the endoplasmic reticulum stress response in human glioma cells. U87-MG GRP78 promoter luciferase reporter, 16 h. Potency, µM, hits mostly activators. hit rate 0.02% among 420,000. AID 602332; note: series mostly up to about 76 µM; nearly all actives have a fitted effect of over 35% in size
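Stably transfected U87-MG glioma cells carrying a GRP78-based luciferase sensor; 16 h compound incubation. Luminescence end-point read 10 min after Bright-Glo addition at room temperature.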
Hits are given with their value; - = inactive; ? = inconclusive; . = no result given. In the library only some 2.3% were active in any assay of this set; here they are far more common. Unless noted, calls come from the whole dose curve; as a rule, active = well fitted curve in the direction sought with a large enough effect; inconclusive = small, poorly fitted or top-dose-only effect, or another doubt; inactive = no such curve, though single readings can be large; an effect the other way counts as inactive or inconclusive.

SMILES	miR-21 reporter	Mito fusion yeast	Nrf2 ARE act	Nrf2 block	A549 viability	GRP78 ERSR act
COc1ccc2c(c1)sc1nc(-c3ccccc3)cn12	?	-	-	18µM	-	-
O=C(Nc1ccc(Cl)c(C(F)(F)F)c1)[C@@H]1CC=C[C@@H]2CCN(Cc3ccc(Cl)c(Cl)c3)C(=O)[C@@H]21	.	.	-	12µM	-	-
COC(=O)[C@H]1CC=C[C@H]2CCN(Cc3ccc(Cl)c(Cl)c3)C(=O)[C@@H]12	.	.	.	.	.	-
COC(=O)C1=C(C(=O)OC)[C@]2([C@H]3CCCCN[C@@H](Cc4ccccc4)C(=O)N3Cc3ccccc3)C=C[C@H]1O2	.	.	-	23µM	-	-
COC(=O)C1=C(C(=O)OC)[C@]2([C@H]3C/C=C\CN[C@@H](Cc4ccccc4)C(=O)N3Cc3ccccc3)C=C[C@H]1O2	.	.	.	.	.	-
Cc1ccc(S(=O)(=O)CC(C)(O)CS(=O)(=O)c2ccc(C)cc2)cc1	-	-	-	-	-	-
CCCN1C(C(=O)c2ccccc2)=C(OC(=O)c2ccc(C)cc2)c2ccccc2S1(=O)=O	?	.	-	23µM	?	-
CCCCN1C(C(=O)c2ccccc2)=C(OC(=O)CC)c2ccccc2S1(=O)=O	?	.	-	21µM	?	-
CCCCCN1C(C(=O)c2ccccc2)=C(OC(=O)CC)c2ccccc2S1(=O)=O	?	.	-	5.8µM	?	-
CCN1C(C(=O)c2ccccc2)=C(OC(=O)COc2ccccc2)c2ccccc2S1(=O)=O	?	.	-	?	15µM	-
Cc1ccc(NC(=O)c2ncn(CCCNCc3ccc4c(c3)OCO4)n2)cc1C	.	.	-	-	-	-
CC(=O)Nc1ccc(S(=O)(=O)Nc2ccc(S(=O)(=O)Nc3ncccn3)cc2)cc1	-	-	-	-	-	-
Cc1ccc(NS(=O)(=O)c2cc(NC(=O)c3ccc4c(c3)NC(=O)CS4)ccc2Cl)c(C)c1	?	-	-	7.3µM	?	-
COc1ccc(N(CC(=O)N/N=C/c2cccnc2)S(=O)(=O)c2ccccc2)c(OC)c1	-	-	-	-	-	-
CC1=C(C(=O)OC(C)C)C(c2cn(-c3ccccc3)nc2-c2cccs2)NC(=O)N1 (stereo not drawn)	-	-	-	18µM	?	-
COC(=O)C1=C(C)NC(=O)NC1c1cn(-c2ccccc2)nc1-c1cccs1 (stereo not drawn)	-	-	-	-	-	-
Cc1ccc2occ(CC(=O)Nc3ccc(S(=O)(=O)N4CCC(C)CC4)cc3)c2c1	-	.	-	26µM	-	-
CCc1nnc(NC(=O)C2CCN(C(=O)c3ccco3)CC2)s1	-	-	-	-	-	-
O=C(Nc1nnc(Cc2ccc(Cl)cc2)s1)C1CCN(C(=O)c2ccco2)CC1	.	.	.	16µM	-	-
CC1CCN(S(=O)(=O)c2ccc(NC(=O)C3CCN(C(=O)c4ccco4)CC3)cc2)CC1	-	-	-	13µM	-	-
O=C(Nc1ccc(Oc2ccccc2)cc1)C1CCN(S(=O)(=O)c2ccccc2)CC1	-	.	-	21µM	-	-
CCOc1ccc(CN2CCCC(CNC(=O)c3ccc(F)cc3)C2)cc1CO (stereo not drawn)	-	-	-	-	-	-
CCN(CC)c1nc(C#N)nc(N2CCOCC2)n1	.	.	.	23µM	-	-
O=C(N/N=C/c1ccccn1)c1ccc(Cl)c(Cl)c1	-	-	.	.	.	.
CN(CC(O)CON=C1c2ccccc2-c2ccccc21)S(=O)(=O)c1ccc(Br)cc1 (stereo not drawn)	-	?	-	21µM	?	-
SMILES	miR-21 reporter	Mito fusion yeast	Nrf2 ARE act	Nrf2 block	A549 viability	GRP78 ERSR act
CCN(CC(O)CON=C1c2ccccc2-c2ccccc21)S(=O)(=O)c1ccc(C)cc1 (stereo not drawn)	-	-	-	21µM	?	-
CCN(CC(O)CON=C1c2ccccc2-c2ccccc21)S(=O)(=O)c1ccc(Cl)cc1 (stereo not drawn)	-	-	-	?	-	-
COCCNCC(O)CON=C1c2ccccc2-c2ccccc21 (stereo not drawn)	-	-	-	-	-	-
Cc1ccccc1NC(=O)/C(C#N)=C\c1ccsc1	-	-	8.9µM	?	-	-
Cc1ccc(NC(=O)/C(C#N)=C/c2ccsc2)c(C)c1	-	-	?	-	-	-
COCC1OS(=O)(=O)NC(CC(=O)SC(C)(C)C)C1C (stereo not drawn)	-	-	-	-	-	-
Cc1cccc2c3nc4ccccc4nc3n(CCCN3C(=O)c4ccccc4C3=O)c12	-	-	-	-	-	-
COc1ccc(-n2cc(-c3ccccc3)[n+]3c2CCCCC3)cc1	?	-	-	8.2µM	-	-
Cc1ccccc1OCC(=O)Nc1nnc(C2CC2)s1	.	-	-	-	-	-
CCOc1ccc(N(CC(=O)Nc2ccc(C)c(C)c2)S(=O)(=O)c2c(C)noc2C)cc1	-	-	-	13µM	-	-
CCOc1ccc(N(CC(=O)Nc2ccccc2C)S(=O)(=O)c2c(C)noc2C)cc1	-	-	-	-	-	-
CCOc1ccc(N(CC(=O)Nc2cccc(F)c2)S(=O)(=O)c2c(C)noc2C)cc1	-	-	-	13µM	-	-
Cc1cc(S(=O)(=O)N(Cc2ccc(C(C)C)cc2)CC2CCCO2)ccc1-n1cnnn1 (stereo not drawn)	-	-	-	23µM	-	-
C/C=C(\C)NNC(=O)Cc1ccc(OC)cc1	.	.	.	.	.	-
CCC(=O)NC(c1ccc(C)cc1)c1cc([N+](=O)[O-])c2cccnc2c1O (stereo not drawn)	-	-	-	23µM	-	-
CC(=O)NC(c1ccc(N(C)C)cc1)c1cc(Cl)c2cccnc2c1O (stereo not drawn)	.	.	-	.	.	-
COc1ccc(C(NC(C)=O)c2cc(Cl)c3cccnc3c2O)cc1 (stereo not drawn)	-	-	-	?	-	-
CCCC(=O)NC(c1ccco1)c1cc([N+](=O)[O-])c2cccnc2c1O (stereo not drawn)	-	-	-	?	?	-
CC(=O)NC(c1ccccc1)c1cc(Cl)c2cccnc2c1O (stereo not drawn)	-	-	-	18µM	?	-
CC(=O)NC(c1ccc(C)cc1)c1cc([N+](=O)[O-])c2cccnc2c1O (stereo not drawn)	-	-	-	12µM	?	-
O=C(NC(c1ccc(Cl)cc1)c1cc(Cl)c2cccnc2c1O)c1cccnc1 (stereo not drawn)	-	-	-	10µM	?	-
O=C(NCCCc1ccccc1)c1cnc2n(c1=O)CCS2	-	-	-	.	-	-
N/C(=N\OC(=O)c1cccc(Br)c1)c1ccccc1	-	-	7.1µM	.	-	-

Bioassay records from PubChem BioAssay.
